# System: UMSCC74B
# Type: in vivo
# Details: UMSCC74B tumor-bearing mice; DGD1202 30 mg/kg oral gavage; cetuximab 100 mg/kg (FIG. 1); P<0.001 for DGD1202
# Protocol: FIG. 1 depicts the effect of DGD1202 in mutant KRAS (and EGFR co-driven) head and neck (UMSCC74B) tumor model. KRAS driven UMSCC74B xenografts bearing nude mice were treated with vehicle, cetuximab (100 mg/kg, Monday), or DGD1202 (30 mg/kg, Mon-Fri) for 2 weeks and effect on tumor growth was measured and plotted.
# Tumor-bearing mice were treated with DGD1202 via oral gavage in 30 mg/kg dose biweekly for one week. This dose was selected based on its single-dose PK profile.
substance,measurement,value
"cetuximab: anti-EGFR antibody, a known EGFR inhibitor [reference compound]",tumor growth,failed to exhibit meaningful efficacy

# Source: patent publication US20220273643A1, “METHOD OF TREATING KRAS-ASSOCIATED CANCERS” (THE REGENTS OF THE UNIVERSITY OF MICHIGAN, priority 2019, published 2022)
